BindingDB's records for doi:10.1016/j.ejmech.2016.06.019 (Federal University of Minas Gerais, 2016)

Assay: Activation of NQO1 in human A549 cells assessed as decrease in cell survival incubated for 2 hrs measured after 7 days in presence of NQO1 inhibitor dicoumarol by Hoechst 33258 staining based assay

In the case of CC1(C)CCC2=C(O1)c1ccccc1C(=O)C2=O [R115 (Reactive Blue 2)], the IC50 is reported as over 10 µM.
